# Paper PMC10044640, “Antimicrobial Peptides Designed against the Ω-Loop of Class A β-Lactamases to Potentiate the Efficacy of β-Lactam Antibiotics” (Antibiotics, 2023)
# Like-named read-outs stand apart in the source and are kept apart here.
# Legend:
# [1] = test system: E. coli CS109 + pBAD-SHV-14; assay type: cell-based, Escherichia coli; conditions: E. coli CS109 + pBAD-SHV-14 (arabinose-induced), no peptide; HT-SPOTi
# [2] = test system: E. coli CS109 + pBAD-SHV-14; assay type: cell-based, Escherichia coli; conditions: CS109 + pBAD-SHV-14, no peptide; broth microdilution, MHB, ~10^5 cells/well, OD600
compound,measurement,setting,value
"CC1(C)S[C@@H]2[C@H](NC(=O)[C@H](N)c3ccc(O)cc3)C(=O)N2[C@H]1C(=O)O [Amx, Amoxicillin]","MIC Value of Antibiotics, β-lactam alone",[1],125 µg/mL
same,"MIC Value of Antibiotics, β-lactam alone",[2],125 µg/mL
